{"source": "paper PMC11823679", "about": "“Protamine protects against vancomycin-induced kidney injury” (Antimicrobial Agents and Chemotherapy, 2025)", "origin": "cited, not measured here", "test_system": "OAT1", "conditions": "read-out: IC50 (referent); exemplar inhibitor; CHOK1 cells; ref referent IC50 results on file (Eurofins); cited from earlier work", "data": [{"smiles": "CCCN(CCC)S(=O)(=O)c1ccc(C(=O)O)cc1", "note": "[probenecid]", "values": [{"measurement": "IC50", "result": 1.6, "unit": "µM"}]}]}
